This is a sample that favours compounds with a hit; in the whole collection about 13% have one here.
JMJD2E inh – blocks human JMJD2E demethylase activity; JMJD2E catalytic domain, FDH-coupled NADH fluorescence (FDH is formaldehyde dehydrogenase); Potency, µM (top dose mostly 57.1 µM), inactives show at the highest dose activity change, negative = inhibition, hits mostly inhibitors; 230,000 tested, 1.6% active; B2RXH2; active = well fitted inhibition curve with a large enough effect, not every such curve was filed as active; inconclusive = small, poorly fitted or top-dose-only effect, or another doubt; inactive = no such curve, though single readings can be large or run the other way;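 note: potency is the fitted concentration of half-maximal effect; 0% = wells with enzyme and -100% = buffer wells without enzyme; nearly all actives have a fitted effect of over 50% in size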
Sfp PPTase inh – inhibitors of Bacillus subtilis Sfp phosphopantetheinyl transferase; Q9F4F7; Biochemical Sfp PPTase activity, qHTS; Potency, µM, inactives show max response, negative = inhibition, usual class: inhibitors; 310,000 tested, 3.5% active; active = well fitted inhibition curve with a large enough effect; inconclusive = small, poorly fitted or top-dose-only effect, or another doubt; inactive = no such curve, though single readings can be large or run the other way;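 note: the enzyme is Sfp with the accession as filed and its product quenches rhodamine fluorescence; potency is the fitted concentration of half-maximal effect; 0% = enzyme reaction without inhibitor and -100% = no enzyme wells; top concentration of the series not given in the record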
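Compounds were incubated with enzyme (final 15 nM) for 15 min at room temperature before substrate addition started the reaction. Fluorescence at 525 nm excitation, 598 nm emission was recorded immediately and after 30 minutes.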
LMNA splice mod – changes lamin A minigene splicing in HeLa cells; 200,000 tested, 0.01% active; HeLa LMNA splicing GFP/RFP minigene ratio, 48 h; Potency, µM (titrated, usually from 46.1 µM), for inactives: at the top dose ratio change, negative = inhibition, usual class: inhibitors; active = well fitted inhibition curve with a large enough effect in the signal ratio, with a control signal flat, not every such curve was filed as active; inconclusive = small, poorly fitted or top-dose-only effect, or effect the other way, or a change in a side signal; the % refers to the signal ratio; note: potency is the fitted concentration of half-maximal effect; % is set by controls: 0 for no effect and ±100 for the full control effect
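S3 HeLa cells stably expressing lamin A-EGFP splicing minigene plus DsRed2, 600 cells/well, 48 h compound exposure at 37C. Laser-scanning cytometry; analysed as GFP (500-530 nm)/RFP (575-640 nm) total intensity ratio; 0.5% DMSO vehicle.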
ALDH1A1 inh – blocks purified human ALDH1A1 activity; P00352; Purified ALDH1A1, NADH fluorescence, propionaldehyde substrate; Potency, µM (titrated, usually from 75.3 µM), for the others: at the highest dose activity, negative = inhibition, hits mostly inhibitors; 220,000 tested, 7.3% active; AID 1030; active = well fitted inhibition curve with a large enough effect, not every such curve was filed as active; inconclusive = small, poorly fitted or top-dose-only effect, or another doubt; inactive = no such curve, though single readings can be large or run the other way;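 note: potency is the fitted concentration of half-maximal effect; plate controls were no enzyme wells and a reference inhibitor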
G9a block – blocks human histone lysine methyltransferase G9a | Q96KQ7 | G9a H3K9 monomethylation, AlphaScreen, 2 h | Potency, µM (doses to about 102 µM), inactives show at the highest dose activity, negative = inhibition, hits mostly inhibitors | 350,000 tested, 8.8% active; note: potency is the fitted concentration of half-maximal effect; % is set by controls: 0 for no effect and ±100 for the full control effect; nearly all actives have a fitted effect of over 75% in size
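Readings reflect AlphaScreen signal from monomethyl-H3K9 antibody detection. HMT at 20 nM; substrate b-H3K9 500 nM; cofactor SAM 20 uM; 2 h RT reaction; compounds tested as titrations in qHTS with 15 min preincubation.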
miR-21 FLuc – miR-21 reporter, rising signal | 340,000 tested, under 10 active | AID 2288 | HeLa miR-21 FLuc reporter, luciferase, 48 h | Potency, µM (titrated, usually from 38.3 µM), for inactives: at the highest dose reporter change, positive = more light; active = well fitted rising curve with a large enough effect; inconclusive = small, poorly fitted or top-dose-only effect; inactive = no such curve, though single readings can be large or run the other way;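 further: % of control where 0% means no effect; miR-21 action dims this reporter so a rising signal means less miR-21 action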
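Luminescence from a firefly luciferase reporter carrying a miR-21 binding site downstream, stably expressed under a CMV promoter in HeLa cells that make miR-21 endogenously, reports miRNA modulation after 48 h compound exposure up to approximately 40uM final.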
* marks the source's active call; other numbers are inactive results; ? = inconclusive; nt = no result; ! = not active in a repeat; [ ] = another dose, or the depositor's remark. Unless noted, calls come from the whole dose curve; as a rule, active = well fitted curve in the direction sought with a large enough effect; inconclusive = small, poorly fitted or top-dose-only effect, or another doubt; inactive = no such curve, though single readings can be large; an effect the other way counts as inactive or inconclusive.

[1] O=C(CCSc1ccccc1)N1CCN(C(=O)c2ccco2)CC1
[2] O=C(c1ccco1)N1CCN(S(=O)(=O)c2ccc(Br)cc2)CC1
[3] O=C(c1ccco1)N1CCN(C(=O)c2cccs2)CC1
[4] O=C(c1ccco1)N1CCN(S(=O)(=O)c2ccc(Oc3ccccc3)cc2)CC1
[5] O=C(c1ccco1)N1CCN(C(=O)c2sccc2-c2ccccc2)CC1
[6] CC(C)(C)c1ccc(S(=O)(=O)NCC(=O)N2CCN(C(=O)c3ccco3)CC2)cc1

Compound,1,2,3,4,5,6
JMJD2E inh,5%,nt,7%,-3%,-9%,5%
Sfp PPTase inh,-16%,11%,-5%,5%,-6%,2%
LMNA splice mod,10%,nt,-2%,?,-13%,-10%
ALDH1A1 inh,22µM*,nt,-5%,0%,13µM*,1.6µM*
G9a block,-7%[59 µM],12%,6%,35µM*,?,-35%[59 µM]
miR-21 FLuc,-39%,-4%,0%,9%,4%,-5%

[7] Cc1ccc(CSc2nc3cccnc3n2Cc2ccc(C(=O)NCCc3cccs3)cc2)cc1
[8] CC(C)C[C@@H](C(=O)N[C@@H](C(=O)O)c1ccccc1)N1C(=O)N2CCc3c([nH]c4ccccc34)[C@@]2(C)C1=O
[9] COc1ccc(C(C)=O)cc1CSc1ccc(S(=O)(=O)N2CCOCC2)cn1
[10] COc1ccc(-c2noc(N3CCCC(C(=O)Nc4ccc(C(C)=O)cc4)C3)n2)cc1 (stereo not given)
[11] O=C(Cc1ccccc1)N1CCN(C(=O)c2ccco2)CC1
[12] O=C(Cc1ccccc1)N1CCC(c2ccccc2)C1 (stereo not given)

Compound,7,8,9,10,11,12
JMJD2E inh,nt,nt,nt,nt,3%,1%
Sfp PPTase inh,nt,6%,nt,-14%,-10%,11%
LMNA splice mod,-6%[46 µM],nt,nt,nt,-2%,nt
ALDH1A1 inh,nt,nt,nt,nt,20µM*,25µM*
G9a block,3%[59 µM],23%[12.7 µM],5%[12.7 µM],81%,4%[59 µM],-13%
miR-21 FLuc,?,-1%,nt,-7%,-11%,-34%

[13] O=C(c1cc2c(s1)-c1ccccc1OC2)N1CCN(c2ccc(F)cc2)CC1
[14] O=C(c1ccco1)N1CCN(C(=O)c2cc3c(s2)-c2ccccc2OC3)CC1
[15] Cc1ccc(NC(=O)C(c2ccccc2)N2CCN(C(=O)c3ccco3)CC2)cc1Cl (stereo not given)
[16] Cc1cccc(C)c1NC(=O)C(c1ccccc1)N1CCN(C(=O)c2ccco2)CC1 (stereo not given)
[17] CC(C)NC(=O)N1CC2(CCN(C(=O)c3ccco3)CC2)C1
[18] O=C(NCc1cccc(F)c1)c1ccccc1NC(=O)c1nsc2ccccc12

Compound,13,14,15,16,17,18
JMJD2E inh,nt,?,nt,-1%,nt,nt
Sfp PPTase inh,nt,50µM*,nt,-6%,2%,nt
LMNA splice mod,nt,?,nt,?,nt,-4%[46 µM]
ALDH1A1 inh,nt,?,nt,25µM*,?,nt
G9a block,6%[59 µM],45µM*,-2%[12.7 µM],-48%,1%[12.7 µM],16%[59 µM]
miR-21 FLuc,-3%,-20%,nt,-7%,nt,6%

[19] CC(=O)c1ccc(S(=O)(=O)N2CCN(C(=O)c3ccccc3Cc3ccccc3)CC2)cc1
[20] CC(=O)c1ccc(S(=O)(=O)N2CCN(C(=O)c3ccc(COc4ccccc4)o3)CC2)cc1
[21] CCCN(C(=O)CCc1nc(-c2ccccc2F)no1)c1ccc(CC)cc1
[22] Cc1oc2c(c(=O)c1C)C(=O)CC(c1ccccc1)C2 (stereo not given)
[23] CS(=O)(=O)c1sc(C#N)c2c1C(=O)CC(c1ccccc1)C2 (stereo not given)
[24] O=C(NC(Cc1ccccc1)C(=O)O)C1CCN(S(=O)(=O)c2ccccc2C(F)(F)F)CC1 (stereo not given)

Compound,19,20,21,22,23,24
JMJD2E inh,nt,nt,nt,7%,?,nt
Sfp PPTase inh,nt,nt,nt,-6%,?,17%
LMNA splice mod,nt,nt,nt,?,?,nt
ALDH1A1 inh,nt,nt,nt,-3%,59%,nt
G9a block,9%[0.501 µM],50µM*,78%[59 µM],-29%[59 µM],25µM*,43%[0.501 µM]
miR-21 FLuc,nt,nt,10%,5%,?,2%

Single records, as listed above. Order of screens: JMJD2E inh, Sfp PPTase inh, LMNA splice mod, ALDH1A1 inh, G9a block, miR-21 FLuc
CCCN(C(=O)CCc1nc(-c2ccccc2F)no1)c1ccc(CC)cc1 is entered as nt, nt, nt, nt, 78%[59 µM], 10%
CS(=O)(=O)c1sc(C#N)c2c1C(=O)CC(c1ccccc1)C2 (stereo not given) is entered as ?, ?, ?, 59%, 25µM*, ?

More results
[25] CC(Oc1ccccc1)C(=O)Nc1nc(-c2ccncc2)cs1 (stereo not given)
[26] CC(Oc1cccc(Cl)c1)C(=O)Nc1nc(-c2ccccn2)cs1 (stereo not given)
[27] CC(Oc1ccccc1)C(=O)Nc1nc(-c2ccccn2)cs1 (stereo not given)
[28] O=C(O)c1cc(-c2ccc(Cl)cc2)n(-c2cccc(Cl)c2)n1
[29] O=C(O)c1cc(-c2ccco2)nn1-c1ccc(Cl)cc1
[30] O=C(O)c1cc(-c2ccco2)nn1-c1cccc(Cl)c1

Compound,25,26,27,28,29,30
JMJD2E inh,nt,nt,nt,nt,-29%,?
Sfp PPTase inh,nt,nt,nt,12%,16µM*,20µM*
LMNA splice mod,nt,nt,nt,nt,-7%[46 µM],-7%[46 µM]
ALDH1A1 inh,nt,nt,nt,nt,-8%,2%
G9a block,-9%[12.7 µM],32µM*,50µM*,20%[0.501 µM],10µM*,18µM*
miR-21 FLuc,nt,nt,nt,-10%,-3%,-1%

[31] Cc1nn(-c2cccc(Cl)c2)c2nc(-c3ccco3)cc(C(=O)O)c12
[32] Cc1ccc(-n2nc(-c3cccnc3)cc2C(=O)N2CCOCC2)c(C)c1
[33] CCOC(=O)c1cc(-c2cccnc2)nn1-c1ccccc1C
[34] CCNS(=O)(=O)c1cccc(C(=O)c2c(C)cc3ccccn23)c1
[35] Cc1cc(OCC(O)CNC(C)c2ccccc2)ccc1C(C)C (stereo not given)
[36] Cc1ccc(-n2nc(-c3ccco3)cc2C(=O)O)c(C)c1

Compound,31,32,33,34,35,36
JMJD2E inh,?,-5%,-4%,-4%,nt,?
Sfp PPTase inh,28µM*,-3%,-6%,-5%,-10%,10µM*
LMNA splice mod,-5%,-1%,-6%[46 µM],?,nt,2%[46 µM]
ALDH1A1 inh,?,-11%,-1%,2%,nt,7%
G9a block,10µM*,45µM*,2%,-7%[59 µM],nt,18µM*
miR-21 FLuc,-4%,-8%,-2%,-7%,?,-1%

[37] COC(=O)CSc1nnc(CNC(=O)c2cccs2)n1-c1cc(OC)ccc1OC
[38] CCOC(=O)CSc1nnc(CNC(=O)c2cccs2)n1-c1cccc(C)c1
[39] Cc1oc2ncn(CC(C)C)c(=O)c2c1C(=O)N1CCN(c2cccc(C(F)(F)F)c2)CC1
[40] OCCOCCN1CCN(C2=Nc3ccccc3Sc3ccccc32)CC1
[41] CN1CC(c2ccccc2Cl)C2(COc3ccccc3C2=O)C12C(=O)Nc1ccccc12 (stereo not given)
[42] CCN1CCN(C(=O)c2ccc3c(c2)S(=O)(=O)c2ccccc2C3=O)CC1

Compound,37,38,39,40,41,42
JMJD2E inh,-4%,0%,nt,?,-6%,-12%
Sfp PPTase inh,3%,10%,nt,50µM*!,-5%,6%
LMNA splice mod,2%,-2%,-4%[46 µM],?,?,-8%[46 µM]
ALDH1A1 inh,20µM*,17%,nt,12%,1.4µM*,7.9µM*
G9a block,2%,-9%[12.7 µM],-21%[59 µM],-8%[12.7 µM],-11%[59 µM],50µM*
miR-21 FLuc,-2%,-1%,-5%,8%,26%,-8%

[43] CCC(C)(C)NC(=O)c1ccc2c(c1)S(=O)(=O)c1ccccc1C2=O
[44] O=C(NCC(c1ccco1)N1CCCCC1)c1ccc(S(=O)(=O)Nc2ccccc2)cc1 (stereo not given)
[45] O=C(Nc1ccccn1)c1ccc2c(c1)S(=O)(=O)c1ccccc1C2=O
[46] O=C(NCCO)c1ccc2c(c1)S(=O)(=O)c1ccccc1C2=O

Compound,43,44,45,46
JMJD2E inh,-3%,nt,1%,-1%
Sfp PPTase inh,-2%,nt,5%,5%
LMNA splice mod,4%,nt,-18%,6%
ALDH1A1 inh,3.5µM*,nt,16µM*,?
G9a block,-25%[59 µM],3%,19%[59 µM],-9%[12.7 µM]
miR-21 FLuc,-35%,nt,-11%,-9%

Assay outcomes (PubChem)
